# This is a selection; strong and weak results do not stand in their true shares. Calls of active or inactive are those of the source.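 Rule for the calls: active = membrane potential signal moved up or down beyond 5 SD of buffer control wells, in both duplicate plates, actives on both sides; inactive = the rest.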
# Test system: Transient receptor potential cation channel subfamily C member 4 (mouse)
# Assay: TRPC4 modulation by TRPC6 hit compounds, confirmation, selectivity assay for TRPC6 modulator project, cell-based, HEK293 TRPC4/mu-opioid, membrane potential dye, mouse (AID 488927)
# Details: membrane potential fluorescence, at 10 µM
row,Compound,percent of control
1,O=C(OC1CN2CCC1CC2)C1c2ccccc2C=Cc2ccccc21 (configuration not stated),active: 19.5%
2,CN1CCN(CCOC(=O)C(O)(c2ccccc2)c2ccccc2)CC1,inactive

# From PubChem BioAssay AID488927 (Johns Hopkins Ion Channel Center, 2010)
